# In patent US12479848B2, “Substituted fused heteroaromatic bicyclic compounds as kinase inhibitors and the use thereof” (IMPACT THERAPEUTICS (SHANGHAI), INC, priority 2019, dated 2025):
# Key:
# Format in all cases: cell-based
# [1] = tested on: human prostate cancer cell DU145; test: MTT proliferation assay, DU145; details: DU-145, 96 h, read-out: IC50 (nM), inhibition of proliferation of DU145
# Experimental: The cells were digested by trypsinase and centrifuged at 800 rpm for 5 minutes, the supernatant was discarded, and the residual was resuspended with fresh medium (DMEM medium+10% FBS+non-essential amino acid) and counted. The cells were seeded into 96-well cell culture plate with a density of 2000 cells per well and incubated overnight in a 5% CO2 incubator at 37° C. […] 5 μL of each concentration was added to 120 μL of medium (25 times diluted) and mixed by shaking. The overnight cell plates were taken and the culture medium was removed, 195 μL of fresh medium was added to each well, and 5 μL of diluted medium containing the corresponding concentration of the test compound was added respectively (the final concentrations of compounds are shown in Table 3, the final concentration of DMSO is 1%), and the culture plate was then placed in a 5% CO2 incubator at 37° C. for 4 days. After removing the original solution, 100 μL of fresh serum-free DMEM medium containing MTT (0.5 mg/mL) was added to each well, the culture was continued. […] GraphPad Prism 6.0 was used to analyze the data. The inhibitory activity of compounds on cell proliferation was plotted based on cell viability and the logarithm of compound concentration. Cell viability %=(ODcompound−ODbackground)/(ODDMSO−ODbackground)×100.
# [2] = tested on: human lung cancer cell NCI-H460; test: MTT proliferation assay, NCI-H460; details: NCI-H460, 96 h, read-out: IC50 (nM), inhibition of proliferation of NCI-H460
# Experimental: (§1) The cells were seeded into 96-well cell culture plate with a density of 2000/4000 cells per well and incubated overnight in a 5% CO2 incubator at 37° C. […] 5 L diluent of each concentration was added to 120 μL of medium (25 times diluted) and mixed by shaking. The overnight cell plates were taken and the culture medium was removed, 195 μL of fresh medium was added to each well, and 5 μL of diluted medium containing the corresponding concentration of the test compound was added respectively (the final concentration of DMSO is 1%), and the culture plate was then placed in a 5% CO2 incubator at 37° C. for 4 days. After removing the original solution, 100 μL of fresh serum-free DMEM medium containing MTT (0.5 mg/mL) was added to each well, the culture was continued. […] Cell viability (%)=(ODcompound−ODbackground)/(ODDMSO−ODbackground)×100. GraphPad Prism 6.0 was used to analyze the data. The inhibitory activity of compounds on cell proliferation was plotted based on cell viability and the logarithm of compound concentration.
# [3] = tested on: human colon cancer cell LoVo; test: MTT proliferation assay, LoVo; details: 96 h, read-out: IC50 (nM), inhibition of proliferation of LoVo
# Experimental: as §1, with “5 μL” for “5 L”, “viability (%)=(ODcompound−ODbackground)/(ODDMSO-ODbackground)×100.” for “viability (%)=(ODcompound−ODbackground)/(ODDMSO−ODbackground)×100.”
smiles,measurement,setting,value
"C[C@@H]1COCCN1c1cc(-c2ccnn2C)c2ccnc(-c3ccn[nH]3)c2n1 [BAY-1895344, reference compound]",IC50,[1],33.9 nM
same,IC50,[2],21.5 nM
same,IC50,[3],26 nM
